{"source": "patent US4902690A", "about": "“Pest controlling compositions” (The General Hospital Corporation, priority 1988, dated 1990)", "system": "octopamine-sensitive adenylate cyclase (firefly lantern octopamine receptor)", "experiment": "Octopamine-sensitive adenylate cyclase activation, firefly light organ broken cell preparation", "type": "biochemical, firefly (Photinus pyralis)", "settings": "Table 2, inhibitory properties at the octopamine receptor"}
{"smiles": "CN(CCCl)Cc1cc(Cl)c(N=C2NCCN2)c(Cl)c1", "values": [{"measurement": "Ki", "value": 250, "unit": "µM"}]}
